Each structure is given as a SMILES string. The list shows a part of the results, in another mix than the full data. Calls of active or inactive are those of the source.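 Rule for the calls: active = ratio signal rise beyond 5 SD above unstimulated control wells' mean, seen in both duplicate runs; inactive = the rest.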

Chains of the proteins cited; added tags and fusions are not shown. Lines headed by an entry give the natural chain unless they say otherwise; changes in a name come on top.
UniProt Q61143: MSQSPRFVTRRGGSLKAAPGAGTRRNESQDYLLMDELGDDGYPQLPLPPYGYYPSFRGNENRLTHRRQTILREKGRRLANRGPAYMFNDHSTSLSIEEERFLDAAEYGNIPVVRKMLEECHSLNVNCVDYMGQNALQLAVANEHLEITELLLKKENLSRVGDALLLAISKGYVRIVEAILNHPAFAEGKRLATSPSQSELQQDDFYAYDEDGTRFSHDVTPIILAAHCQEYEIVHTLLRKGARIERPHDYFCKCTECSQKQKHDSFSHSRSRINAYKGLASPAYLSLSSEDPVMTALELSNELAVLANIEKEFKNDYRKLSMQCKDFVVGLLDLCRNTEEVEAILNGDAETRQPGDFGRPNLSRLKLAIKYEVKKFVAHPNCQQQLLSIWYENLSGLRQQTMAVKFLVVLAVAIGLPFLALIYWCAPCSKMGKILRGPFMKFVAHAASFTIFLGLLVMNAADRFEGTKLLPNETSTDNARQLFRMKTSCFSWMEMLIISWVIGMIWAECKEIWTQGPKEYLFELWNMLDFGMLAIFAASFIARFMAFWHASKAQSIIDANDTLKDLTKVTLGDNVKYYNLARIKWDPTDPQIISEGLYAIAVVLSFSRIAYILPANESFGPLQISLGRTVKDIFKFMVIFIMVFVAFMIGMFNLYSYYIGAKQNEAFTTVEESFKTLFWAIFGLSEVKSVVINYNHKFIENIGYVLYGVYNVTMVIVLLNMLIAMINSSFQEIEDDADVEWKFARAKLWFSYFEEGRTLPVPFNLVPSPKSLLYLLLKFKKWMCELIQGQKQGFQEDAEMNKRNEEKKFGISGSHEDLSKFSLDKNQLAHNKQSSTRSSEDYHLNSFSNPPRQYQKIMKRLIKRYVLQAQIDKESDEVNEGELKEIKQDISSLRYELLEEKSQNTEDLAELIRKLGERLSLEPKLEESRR

The target of this assay is Short transient receptor potential channel 6 (Mus musculus) (UniProt Q61143). Nature of the assay: mouse TRPC6 channel activators, confirmation, HEK293 cells, membrane potential dye, duplicate (AID 488961).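 Note: plate controls were buffer EC0 wells for no effect and acetylcholine ECmax response for full effect.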 Particulars: HEK293-TRPC6 membrane potential dye fluorescence, FDSS; at 10 µM; hits give high values.
For the compound `CN1CCCC(OC(=O)C(c2ccccc2)c2ccccc2)C1` (stereo not drawn), the activation was inactive: 0%. The figure for `O=[N+]([O-])c1ccc(O)c(/C=N/Nc2ccc([N+](=O)[O-])cc2[N+](=O)[O-])c1` is inactive: 0%; for `CCC1=CC2Cc3nc4ccc(Cl)cc4c(N)c3C(C1)C2` (stereo not drawn) it is inactive: 0%.
